Sampled rows, rich in hits. Any-hit rate of the full collection: about 0.94%.
PKA-R1A act: activates the PKA-R1A holoenzyme complex. PKA-R1A dissociation, Cy5-IP20 fluorescence polarization; scaled: DMSO 0%, 113 µM cGMP 100%. activation, % at 11.4 µM. 340,000 compounds, 0.083% hits. AID 504707;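 active means percent activation above the mean of all tested compounds plus 3 SD, cut at about 19% in these data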;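 further: higher means more PKAc released from R1A so a rise in polarization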
pCIP destab: p/CIP protein destabilization. Q05BA5. F442A p/CIP-EGFP cells, EGFP fluorescence, 16 h. decrease of EGFP signal, % at 10 µM. 290,000 compounds, 0.01% hits. AID 1984;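 active means EGFP signal decrease of at least 30% at 10 µM or well 3 SD below plate mean, unless failing retest; inactive means the rest, including hits failing retest or dose response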
ABCB6 inh MLPCN: blocks the human ABCB6 transporter; Q9NP58; AID 602162; K562-ABCB6 porphyrin accumulation, flow cytometry, 1 h; active compounds read low; fluorescence ratio to DMSO, % at 10 µM; 360,000 compounds, 0.19% hits;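 active means fluorescence ratio to DMSO below 75%, the collection mean minus 3 SD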;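 further: signal is porphyrin accumulated inside mitochondria; lower ratio means ABCB6 inhibition with less porphyrin fluorescence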
Yeast UUG start: modulators of yeast start codon fidelity, primary screen, whole organism, S. cerevisiae, single point, plate reader; activity score, % at 18.7 µM; actives 0.13% (n = 350,000); S. cerevisiae UUG-firefly luciferase reporter, luminescence/redox ratio;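 active = replicate mean at a twofold rise or more, about +100% in these data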;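 also: firefly luciferase made from a UUG start codon reports start codon fidelity; reporter light over untreated wells divided by growth signal over untreated wells; some hits fall short of that in this replicate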
Exocytosis inh: lytic granule exocytosis inhibition | inhibition, % at 10 µM | 360,000 compounds, 0.66% hits | TALL-104 LAMP-1 surface exposure, flow cytometry; cells stimulated with thapsigargin and PMA | AID 651702;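 active means inhibition above about 55%, limit read from the data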
PKA-R2B act: activators of human PKA-R2B complex; P22694+P31323; PKA-R2B holoenzyme dissociation, Cy5-IP20 fluorescence polarization; R2B truncated from residue 108, S112A mutant; 0% DMSO only, 100% 113 µM cGMP; activation, % at 11.4 µM; 340,000 compounds, 0.079% hits; AID 504700;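 active means activation above a cutoff set at the mean over all compounds plus 3 SD, cut at about 18% in these data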;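 further: higher means more holoenzyme dissociation and a rise in polarization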
ABCB6 inh CP1: human ABCB6 transporter inhibition | 700 tested, under 10 active | shares compounds with ABCB6 inh MLPCN | ratio response (% of DMSO), % at 10 µM | K562-ABCB6 porphyrin accumulation, flow cytometry, 1 h; active compounds read low;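 active means repeat-averaged ratio response below 75% of DMSO, the collection mean minus 3 SD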;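 further: median porphyrin fluorescence at 575 nm with 488 nm excitation from mitochondria; lower ratio means less porphyrin signal so ABCB6 inhibition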
Hits are given with their value; – = inactive; · = not tested or not shown.

SMILES | PKA-R1A act | pCIP destab | ABCB6 inh MLPCN | Yeast UUG start | Exocytosis inh | PKA-R2B act | ABCB6 inh CP1
CC1(C(=O)NS(=O)(=O)c2ccccc2)CCN1C(=O)Cc1ccccc1 (stereo not drawn) | · | · | – | – | – | · | ·
CC1(C(=O)NS(=O)(=O)c2cccc(C#N)c2)CCN1C(=O)CCc1ccccc1 (stereo not drawn) | · | · | – | – | – | · | –
CC1(C(=O)NS(=O)(=O)c2cccc(Cl)c2)CCN1C(=O)Cc1ccc(Cl)cc1Cl (stereo not drawn) | · | · | – | – | – | · | ·
C[C@@H]1CN([C@H](C)CO)C(=O)c2cccc(NS(=O)(=O)c3ccc(Cl)cc3)c2O[C@@H]1CN(C)C(=O)Nc1ccc2c(c1)OCO2 | · | · | · | – | · | · | ·
C[C@@H]1CN([C@@H](C)CO)C(=O)Cc2cc(NS(=O)(=O)c3cn(C)cn3)ccc2O[C@@H]1CN(C)CC1CC1 | · | · | · | – | · | · | ·
C[C@@H]1CN([C@H](C)CO)C(=O)c2c(c3ccccc3n2C)-c2ccccc2CO[C@H]1CN(C)C(=O)c1ccccc1 | · | · | · | – | · | · | ·
Cc1ccc(F)c(S(=O)(=O)NC(=O)C2(C)CCN2C(=O)Cc2cccc3ccccc23)c1 (stereo not drawn) | · | · | – | – | – | · | –
CC(C)(C)c1ccc(CC(=O)N2CCC2(C)C(=O)NS(=O)(=O)c2ccccc2C(F)(F)F)cc1 (stereo not drawn) | · | · | – | – | – | · | –
CC(C)(C)c1ccc(CC(=O)N2CCC2(C)C(=O)NS(=O)(=O)c2cccc(F)c2)cc1 (stereo not drawn) | · | · | – | – | – | · | –
C[C@@H]1CN([C@@H](C)CO)C(=O)c2cc(NC(=O)Nc3ccc(C(F)(F)F)cc3)ccc2O[C@@H]1CN(C)C | · | · | · | – | · | · | ·
C[C@@H]1CCCCO[C@H](CN(C)C(=O)Nc2ccccc2)[C@H](C)CN([C@@H](C)CO)C(=O)c2cc(NS(C)(=O)=O)ccc2O1 | · | · | · | – | · | · | ·
Cc1cccc(OCCSc2nc3ncnc(N)c3[nH]2)c1 | – | – | 71.0 | · | – | – | –
Cc1ccc(C)c(NC(=O)CN(C)C(=O)[C@@H](NC(N)=O)C(C)C)c1 | – | – | – | · | – | – | ·
CSCCC(NC(N)=O)C(=O)N(C)CC(=O)Nc1cc(C)ccc1C (stereo not drawn) | – | – | 69.0 | – | – | – | –
COc1ccc(NC(=O)N(C)C[C@H]2OCCCC[C@H](C)Oc3ccc(NS(=O)(=O)c4ccc(Cl)cc4)cc3C(=O)N([C@@H](C)CO)C[C@@H]2C)cc1 | · | · | · | – | · | · | ·
COc1ccc(CC(=O)Nc2c3c(nn2-c2ccccc2C)CS(=O)C3)cc1 (stereo not drawn) | – | – | 59.0 | – | – | – | –
Cc1ccccc1-n1nc2c(c1NC(=O)COc1ccc(Cl)cc1)CS(=O)C2 (stereo not drawn) | – | – | – | – | – | – | ·
CO[C@@H]1CN(C)C(=O)c2ccc(NS(C)(=O)=O)cc2OC[C@@H](C)NC[C@@H]1C | · | · | · | – | · | · | ·
O=C(C[C@H]1C[C@H]2c3cc(NS(=O)(=O)c4ccc(F)cc4)ccc3O[C@H]2[C@H](CO)O1)N1CCOCC1 | · | · | · | – | · | · | ·
O=C(COc1ccccc1)N1CCN(C(=O)COc2ccccc2)CC1 | – | – | 68.0 | – | – | – | –
O=C(COc1ccccc1)N1CCCCCCC1 | – | – | – | – | – | – | ·
Cn1c(=O)c2c(ncn2CC(=O)N(Cc2ccccc2)c2ccccn2)n(C)c1=O | – | – | 71.0 | – | – | – | –
COc1ccc(S(=O)(=O)Nc2c(NC3CCCCC3)c3ccccc3oc2=O)cc1 | – | – | 71.0 | – | – | – | –
COc1ccc(S(=O)(=O)N2CCCCN3[C@H](C2)[C@H](c2ccc(C#CC4CC4)cc2)[C@@H]3CO)cc1 | · | · | · | – | · | · | ·
COC(=O)[C@H](CCSC)NC(=O)Nc1ccc(C(C)C)cc1 | – | – | – | – | – | – | ·
COC(=O)[C@H](CCSC)NC(=O)Nc1ccc(C)c(C)c1 | – | – | 69.0 | – | – | – | –
COc1ccc(NC(=O)c2cc(CN3C(=O)c4ccccc4C3=O)ccc2OC)cn1 | – | – | 70.0 | – | – | – | –

From PubChem
